Source: US11236378B2 (priority 2015, dated 2022)

Protein sequences, listed by entry. Tags and fused reporters are not part of them. Lines headed by an entry give the natural chain unless they say otherwise; changes in a name come on top.
UniProt P05067: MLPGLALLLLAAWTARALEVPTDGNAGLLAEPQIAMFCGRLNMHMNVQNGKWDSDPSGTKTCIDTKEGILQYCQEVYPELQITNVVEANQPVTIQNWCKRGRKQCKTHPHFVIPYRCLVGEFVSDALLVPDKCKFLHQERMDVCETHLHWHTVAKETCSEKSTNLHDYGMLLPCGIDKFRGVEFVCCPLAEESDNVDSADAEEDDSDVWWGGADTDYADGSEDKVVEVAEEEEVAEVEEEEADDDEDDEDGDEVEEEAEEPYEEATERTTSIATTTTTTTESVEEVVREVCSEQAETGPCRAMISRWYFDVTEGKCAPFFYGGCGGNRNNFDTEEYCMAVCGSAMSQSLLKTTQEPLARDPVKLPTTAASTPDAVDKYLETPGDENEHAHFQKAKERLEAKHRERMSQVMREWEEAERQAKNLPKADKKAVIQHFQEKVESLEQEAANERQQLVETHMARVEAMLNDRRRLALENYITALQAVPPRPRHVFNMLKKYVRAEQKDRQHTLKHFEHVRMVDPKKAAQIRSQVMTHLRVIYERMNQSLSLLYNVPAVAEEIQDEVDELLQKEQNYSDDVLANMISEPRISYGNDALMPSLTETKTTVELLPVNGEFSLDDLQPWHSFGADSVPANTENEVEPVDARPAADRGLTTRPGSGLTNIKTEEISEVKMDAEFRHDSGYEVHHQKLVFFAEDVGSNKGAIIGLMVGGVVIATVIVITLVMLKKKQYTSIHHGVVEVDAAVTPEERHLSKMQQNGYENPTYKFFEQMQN

Legend:
[1] = tested on: HEK293T-APP cells; assay: Aβ42 secretion detected in HEK293T-APP cells (ELISA of culture medium); format: cell-based, human; conditions: class symbols +, key not given
[2] = target: Aβ42 (Homo sapiens, UniProt P05067); assay: Liposome experiment: Aβ42 aggregation/oligomerization (immunoblot)

O=[As]c1cccc2cc3ccccc3cc12 (stereo not shown)
Activity [1]: + +

phosphatidylinositol 4-phosphate
facilitation effect on oligomerization of Aβ42 at high concentration ([2]; 80 μM compared to 40 μM): the facilitation effect on oligomerization of Aβ42 decreases as compared to a concentration of 40 μM
facilitation effect on Aβ42 aggregation in liposomes compared with other lipids ([2]; compared with PI and PI4,5P): significantly stronger than PI and PI4,5P
oligomerization of Aβ42 in liposomes ([2]; varying PI4P concentration): facilitates oligomerization of Aβ42 in liposomes in a concentration dependent manner
